Measured values as given in ChEMBL document CHEMBL2424620, “β2-Adrenoceptor agonists in the regulation of mitochondrial biogenesis” (Bioorg Med Chem Lett, 2013).
Calls of active or inactive are those of the source. The rule behind the calls is not given here.

Test system: RPT
Assay: Induction of Mitochondrial biogenesis in rabbit RPT cells at 10 to 3000 nM after 24 hrs by FCCP-OCR assay relative to control
Type: functional, cell-based
Conditions: Oryctolagus cuniculus
Procedure, shortened: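 Primary cultures of rabbit renal proximal tubule cells, grown under improved conditions favouring aerobic respiration, were exposed to compound (10–3,000 nM) for 24 h. FCCP-uncoupled oxygen consumption rate was then read on a Seahorse XF-96. Plates included vehicle (DMSO <0.5%), SRT1720 10 μM positive control and blanks. Results are expressed as a ratio or percent fold change versus DMSO, mean ± s.e.m., N=4. A ratio >1.15 was classed as MB.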

COc1ccc(CC(C)NCC(O)c2ccc(O)c(NC=O)c2)cc1 (stereo unspecified)
Activity: Active
